Laboratory results as given in US20230257479A1 (Genmab, published 2023).

What was measured:
[1] = molecular target: T1, human 5T4ECDHis (mature protein of SEQ ID NO: 99) (human, UniProt Q13641 32-355); experiment: BLI cross-block; competitor (immobilised): IgG1-5T4-059-FEAR
T1 construct: ECD of human 5T4 (aa 1-355 of Uniprot Q13641) with C-terminal His tag; residues 1-31 are the signal peptide; also called ECD of human 5T4 with a C-terminal His tag
T1 sequence: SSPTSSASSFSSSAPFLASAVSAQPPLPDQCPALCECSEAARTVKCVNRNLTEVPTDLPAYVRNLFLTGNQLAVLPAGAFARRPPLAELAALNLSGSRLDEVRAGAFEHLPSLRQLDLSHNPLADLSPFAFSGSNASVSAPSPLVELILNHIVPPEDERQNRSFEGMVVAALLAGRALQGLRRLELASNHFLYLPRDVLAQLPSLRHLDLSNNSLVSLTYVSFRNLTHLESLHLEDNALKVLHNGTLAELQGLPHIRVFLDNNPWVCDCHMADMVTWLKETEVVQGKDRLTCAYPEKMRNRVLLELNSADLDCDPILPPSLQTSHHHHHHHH

[2] = molecular target: T1, human 5T4ECDHis (mature protein of SEQ …); experiment: BLI, antibody on anti-human IgG Fc Capture biosensor, antigen in solution
[3] = molecular target: T2, full length human 5T4 (SEQ ID NO: 1) on cells (human, UniProt Q13641 32-420); experiment: flow cytometry, HeLa cells, PE secondary [II)C]
T2 construct: Uniprot Q13641; residues 1-31 are the signal peptide; Used both for transfected HEK-293 cells and for 5T4-expressing human tumor cell lines
T2 sequence: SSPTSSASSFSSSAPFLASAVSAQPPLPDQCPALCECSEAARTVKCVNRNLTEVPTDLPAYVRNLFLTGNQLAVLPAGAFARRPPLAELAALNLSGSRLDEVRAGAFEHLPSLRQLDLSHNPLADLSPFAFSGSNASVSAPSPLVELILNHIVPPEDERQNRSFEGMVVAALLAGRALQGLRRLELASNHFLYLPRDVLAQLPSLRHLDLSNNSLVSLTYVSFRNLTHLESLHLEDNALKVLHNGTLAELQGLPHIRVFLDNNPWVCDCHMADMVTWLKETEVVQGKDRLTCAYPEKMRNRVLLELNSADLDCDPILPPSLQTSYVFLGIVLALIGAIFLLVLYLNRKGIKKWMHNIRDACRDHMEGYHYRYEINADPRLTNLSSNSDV

[4] = molecular target: T3, recombinant cynomolgus monkey 5T4 protein (Cusabio; cat. no. CSB-MP024093MOV) (cynomolgus monkey, UniProt Q4R8Y9 35-355); experiment: BLI, antibody on anti-human IgG Fc Capture biosensor, antigen in solution
T3 construct: extracellular domain; Bought protein; also called cynomolgus 5T4; cynomolgus monkey 5T4 extracellular domain
T3 sequence (looked up): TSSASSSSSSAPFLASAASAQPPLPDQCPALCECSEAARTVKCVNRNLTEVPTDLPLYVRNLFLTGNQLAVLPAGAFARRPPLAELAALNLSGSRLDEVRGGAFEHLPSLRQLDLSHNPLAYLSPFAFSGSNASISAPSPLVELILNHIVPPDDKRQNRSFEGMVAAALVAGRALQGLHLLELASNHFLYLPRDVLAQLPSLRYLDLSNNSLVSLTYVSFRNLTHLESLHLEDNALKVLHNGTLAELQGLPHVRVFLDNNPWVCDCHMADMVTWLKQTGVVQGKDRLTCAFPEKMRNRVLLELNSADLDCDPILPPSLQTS

[5] = molecular target: T2, full length human 5T4 (SEQ ID NO: 1) on …; experiment: flow cytometry, MDA-MB-231 cells, PE secondary [III)C]
[6] = molecular target: T1, human 5T4ECDHis (mature protein of SEQ …); experiment: BLI cross-block; competitor (immobilised): IgG1-5T4-H8-FEAR
[7] = molecular target: T1, human 5T4ECDHis (mature protein of SEQ …); experiment: BLI cross-block; competitor (immobilised): IgG1-5T4-226-FEAR
[8] = molecular target: T1, human 5T4ECDHis (mature protein of SEQ …); experiment: BLI cross-block; competitor (immobilised): IgG1-5T4-A1-F405L
[9] = molecular target: T1, human 5T4ECDHis (mature protein of SEQ …); experiment: BLI cross-block; competitor (immobilised): IgG1-5T4-127-FEAR
[10] = molecular target: T2, full length human 5T4 (SEQ ID NO: 1) on …; experiment: flow cytometry, MDA-MB-231 cells, FITC secondary [I)B]
[11] = molecular target: T1, human 5T4ECDHis (mature protein of SEQ …); experiment: BLI cross-block; competitor (immobilised): IgG1-5T4-085-FEAR
[12] = molecular target: T1, human 5T4ECDHis (mature protein of SEQ …); experiment: BLI cross-block; competitor (immobilised): IgG1-5T4-076-FEAR
[13] = molecular target: T1, human 5T4ECDHis (mature protein of SEQ …); experiment: BLI cross-block; competitor (immobilised): IgG1-5T4-207-FEAR
[14] = molecular target: T2, full length human 5T4 (SEQ ID NO: 1) on …; experiment: flow cytometry, HeLa cells, FITC secondary [I)B]
[15] = molecular target: T2, full length human 5T4 (SEQ ID NO: 1) on …; experiment: flow cytometry, HEK-293 cells transfected with human 5T4, PE secondary [II)C]
[16] = molecular target: T4, full length cynomolgus monkey 5T4 on transfected HEK-293 cells (cynomolgus monkey, UniProt Q4R8Y9 35-420); experiment: flow cytometry, HEK-293 cells transfected with cynomolgus monkey 5T4, PE secondary [II)C]
T4 construct: Uniprot Q4R8Y9; residues 1-34 are the signal peptide; also called cynomolgus 5T4
T4 sequence: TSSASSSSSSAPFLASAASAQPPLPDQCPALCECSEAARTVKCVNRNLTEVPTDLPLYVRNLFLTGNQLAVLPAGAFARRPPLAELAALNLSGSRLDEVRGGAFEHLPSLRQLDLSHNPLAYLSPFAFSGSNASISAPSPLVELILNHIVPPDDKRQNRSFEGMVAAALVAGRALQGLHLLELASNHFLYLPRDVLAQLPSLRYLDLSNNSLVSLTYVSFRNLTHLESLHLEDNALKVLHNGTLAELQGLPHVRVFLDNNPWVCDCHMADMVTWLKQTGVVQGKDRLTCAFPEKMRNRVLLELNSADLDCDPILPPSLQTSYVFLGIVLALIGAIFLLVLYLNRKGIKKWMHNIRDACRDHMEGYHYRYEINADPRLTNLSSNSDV

[17] = molecular target: T1, human 5T4ECDHis (mature protein of SEQ …); experiment: BLI cross-block; competitor (immobilised): IgG1-5T4-106-FEAR

B1: IgG1-5T4-059-FEAR (antibody, V domains shown)
VH: QVQLVESGGGVVQPGRSLRLSCAVSGFTFSSYDMNWVRQAPGKGLEWVTFISYDGSNKYNADSVKGRFTISRDNSKNTLYLQMNSLRAEDTAVYYCARDSYSRSWYGDYYGMDVWGQGTTVTVSS
VL: DIQMTQSPSSLSASVGDRVTITCRASQGISSWLAWYQQKPEKAPKSLIYAASSLQSGVPSRFSGSGSGTDFTLTISSLQPEDFATYYCQQYNSYPLTFGGGTKVEIK
notes: Monospecific, bivalent human IgG1 kappa with L234F, L235E, D265A, K409R (FEAR); also called IgG1-5T4-059-04-FEAR
- corrected association response [1]: 0.01 nm
- Kd [2]: 1.5 nM
- koff [2]: 0.00032 s⁻¹
- kon [2]: 210000 M⁻¹ s⁻¹
- EC50 (read off the curve) [3]: ~0.04 µg/mL
- Kd [4]: 1.8 nM
- koff [4]: 0.00028 s⁻¹
- kon [4]: 160000 M⁻¹ s⁻¹
- EC50 (read off the curve) [5]: ~0.03 µg/mL
- corrected association response [6]: -0.02 nm
- corrected association response [7]: -0.02 nm
- corrected association response [8]: 0.91 nm
- corrected association response [9]: -0.05 nm
- EC50 (read off the curve) [10]: ~0.1 µg/mL
- corrected association response [11]: -0.04 nm
- corrected association response [12]: -0.02 nm
- corrected association response [13]: -0.02 nm
- EC50 (read off the curve) [14]: ~0.05 µg/mL
- EC50 (read off the curve) [15]: ~0.08 µg/mL
- EC50 (read off the curve) [16]: ~0.05 µg/mL
- corrected association response [17]: -0.03 nm
